This is an account of results in PMC10355216, “The C-terminal tail of CSNAP attenuates the CSN complex” (Life Science Alliance, 2023).

For one experiment, the target named is recombinant CSN^ΔCSNAP complex, Q13098;Q9UNS2;Q92905;Q99627. As to the kind of experiment: peptide array. Conditions: mean of six arrays; read off a plot.
In the case of “16AA C-CSNAP peptide on the peptide array (spot A1) F43(D-Phe)”, the ratio to parent (fold of C-CSNAP) amounted to 0.88.

Take “16AA C-CSNAP peptide on the peptide array (spot A1) D54(D-Asp)”: the ratio to parent (fold of C-CSNAP) came to 1.3.

For the substance “16AA C-CSNAP peptide on the peptide array (spot A1) Q57(D-Gln)”, the ratio to parent (fold of C-CSNAP) is 1.5.

Regarding “16AA C-CSNAP peptide on the peptide array (spot A1) F51W”, the ratio to parent (fold of C-CSNAP) was found to be 1.

For “16AA C-CSNAP peptide on the peptide array (spot A1) F43W; F44W”, the ratio to parent (fold of C-CSNAP) was determined as 1.3.

“16AA C-CSNAP peptide on the peptide array (spot A1) D49A”: the ratio to parent (fold of C-CSNAP) was 0.84.

“16AA C-CSNAP peptide on the peptide array (spot A1) F43W; F47W”: the ratio to parent (fold of C-CSNAP) amounted to 1.5.

Regarding “16AA C-CSNAP peptide on the peptide array (spot A1) D49E”, the ratio to parent (fold of C-CSNAP) came out at 0.93.

Turning to “16AA C-CSNAP peptide on the peptide array (spot A1) F44W”, the ratio to parent (fold of C-CSNAP) was determined as 1.3.

Take “16AA C-CSNAP peptide on the peptide array (spot A1) Aib at positions 45,50,56”: the ratio to parent (fold of C-CSNAP) stood at 0.82.

Take “16AA C-CSNAP peptide on the peptide array (spot A1) F47(D-Phe)”: the ratio to parent (fold of C-CSNAP) was determined as 1.

In the case of “16AA C-CSNAP peptide on the peptide array (spot A1) D52(D-Asp)”, the ratio to parent (fold of C-CSNAP) stood at 0.93.

Turning to “16AA C-CSNAP peptide on the peptide array (spot A1) F44(D-Phe)”, the ratio to parent (fold of C-CSNAP) was found to be 0.84.

With “16AA C-CSNAP peptide on the peptide array (spot A1) N45(D-Asn)”, the ratio to parent (fold of C-CSNAP) was 0.84.

For the substance “16AA C-CSNAP peptide on the peptide array (spot A1) F51(D-Phe)”, the ratio to parent (fold of C-CSNAP) worked out at 0.95.

Regarding “16AA C-CSNAP peptide on the peptide array (spot A1) I56(D-Ile)”, the ratio to parent (fold of C-CSNAP) was 1.5.

In the case of “16AA C-CSNAP peptide on the peptide array (spot A1) D46E”, the ratio to parent (fold of C-CSNAP) came out at 1.

As to “16AA C-CSNAP peptide on the peptide array (spot A1) Aib at positions 46,52,57”, the ratio to parent (fold of C-CSNAP) stood at 0.7.

Regarding “16AA C-CSNAP peptide on the peptide array (spot A1) F43W”, the ratio to parent (fold of C-CSNAP) was 1.3.

For “16AA C-CSNAP peptide on the peptide array (spot A1) D49(D-Asp)”, the ratio to parent (fold of C-CSNAP) is 1.

With “16AA C-CSNAP peptide on the peptide array (spot A1) D52A”, the ratio to parent (fold of C-CSNAP) is 0.96.

Consider “16AA C-CSNAP peptide on the peptide array (spot A1) E48A”, for which the ratio to parent (fold of C-CSNAP) turned out to be 1.

The next experiment deals with recombinant COP9 signalosome complex (CSN), Q13098;Q9UNS2;Q92905;Q99627;Q8WXC6. As to the kind of experiment: peptide array. Conditions: mean of six arrays; read off a plot.
“16AA C-CSNAP peptide on the peptide array (spot A1) D52E”: the ratio to parent (fold of C-CSNAP) was 0.97.

On to “16AA C-CSNAP peptide on the peptide array (spot A1) Q57(D-Gln)”, for which the ratio to parent (fold of C-CSNAP) was 1.

Regarding “16AA C-CSNAP peptide on the peptide array (spot A1) F51W”, the ratio to parent (fold of C-CSNAP) is 0.81.

Turning to “16AA C-CSNAP peptide on the peptide array (spot A1) F43W; F44W”, the ratio to parent (fold of C-CSNAP) came to 0.73.

For “16AA C-CSNAP peptide on the peptide array (spot A1) F43W; F47W”, the ratio to parent (fold of C-CSNAP) amounted to 0.79.

As to “16AA C-CSNAP peptide on the peptide array (spot A1) D49E”, the ratio to parent (fold of C-CSNAP) was found to be 0.79.

Turning to “16AA C-CSNAP peptide on the peptide array (spot A1) Aib at positions 42,48,54”, the ratio to parent (fold of C-CSNAP) amounted to 0.47.

With “16AA C-CSNAP peptide on the peptide array (spot A1) F44W”, the ratio to parent (fold of C-CSNAP) stood at 0.81.

Regarding “16AA C-CSNAP peptide on the peptide array (spot A1) Aib at positions 45,50,56”, the ratio to parent (fold of C-CSNAP) was 0.47.

For the substance “16AA C-CSNAP peptide on the peptide array (spot A1) F47(D-Phe)”, the ratio to parent (fold of C-CSNAP) was 0.45.

Turning to “16AA C-CSNAP peptide on the peptide array (spot A1) N45A”, the ratio to parent (fold of C-CSNAP) is 1.3.

Turning to “16AA C-CSNAP peptide on the peptide array (spot A1) D54E”, the ratio to parent (fold of C-CSNAP) worked out at 0.97.

For “16AA C-CSNAP peptide on the peptide array (spot A1) F43A”, the ratio to parent (fold of C-CSNAP) was 0.84.

Take “16AA C-CSNAP peptide on the peptide array (spot A1) D53E”: the ratio to parent (fold of C-CSNAP) was 0.93.

For “16AA C-CSNAP peptide on the peptide array (spot A1) F47W”, the ratio to parent (fold of C-CSNAP) was 0.94.

Take “16AA C-CSNAP peptide on the peptide array (spot A1) D53A”: the ratio to parent (fold of C-CSNAP) turned out to be 0.89.

For “16AA C-CSNAP peptide on the peptide array (spot A1) N45(D-Asn)”, the ratio to parent (fold of C-CSNAP) amounted to 0.97.

As for “16AA C-CSNAP peptide on the peptide array (spot A1) I56(D-Ile)”, the ratio to parent (fold of C-CSNAP) is 1.

For “16AA C-CSNAP peptide on the peptide array (spot A1) D46E”, the ratio to parent (fold of C-CSNAP) came out at 1.

Consider “16AA C-CSNAP peptide on the peptide array (spot A1) D55E”, for which the ratio to parent (fold of C-CSNAP) came to 1.

On to “16AA C-CSNAP peptide on the peptide array (spot A1) Aib at positions 46,52,57”, for which the ratio to parent (fold of C-CSNAP) was found to be 0.32.

Turning to “16AA C-CSNAP peptide on the peptide array (spot A1) D54A”, the ratio to parent (fold of C-CSNAP) worked out at 0.95.

For the substance “16AA C-CSNAP peptide on the peptide array (spot A1) F43W”, the ratio to parent (fold of C-CSNAP) turned out to be 0.77.

Regarding “16AA C-CSNAP peptide on the peptide array (spot A1) D52A”, the ratio to parent (fold of C-CSNAP) worked out at 1.

Consider “16AA C-CSNAP peptide on the peptide array (spot A1) D46(D-Asp)”, for which the ratio to parent (fold of C-CSNAP) amounted to 0.97.

With “16AA C-CSNAP peptide on the peptide array (spot A1) D55A”, the ratio to parent (fold of C-CSNAP) is 1.

For “16AA C-CSNAP peptide on the peptide array (spot A1) E48(D-Glu)”, the ratio to parent (fold of C-CSNAP) is 0.24.
